Measured values published in US7473694B2, “Pyrazolopyrimidine derivatives or pharmaceutically acceptable salts thereof” (Teijin Pharma Limited, priority 2005, dated 2009).

Amino acid sequences for entries named in this document (tags omitted).
UniProt P49137, whole entry: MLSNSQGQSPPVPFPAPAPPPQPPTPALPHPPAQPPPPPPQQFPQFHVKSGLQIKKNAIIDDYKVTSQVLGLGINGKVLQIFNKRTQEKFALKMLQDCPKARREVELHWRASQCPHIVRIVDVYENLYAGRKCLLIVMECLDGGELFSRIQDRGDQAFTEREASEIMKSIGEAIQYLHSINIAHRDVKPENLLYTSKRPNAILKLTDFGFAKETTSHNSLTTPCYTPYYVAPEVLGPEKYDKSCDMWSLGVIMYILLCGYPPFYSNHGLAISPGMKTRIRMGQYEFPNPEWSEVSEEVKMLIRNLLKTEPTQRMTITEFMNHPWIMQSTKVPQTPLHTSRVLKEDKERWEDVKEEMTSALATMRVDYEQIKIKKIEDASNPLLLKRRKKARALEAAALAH

Biological target: recombinant human MAPKAP-K2 (Homo sapiens, UniProt P49137)
Assay: Inhibition of MAPKAP-K2 enzyme activity (33P-ATP peptide substrate phosphorylation)
Conditions: read-out: Activity strength (IC50 against MAPKAP-K2); recombinant human MAPKAP-K2 10 mU, room temperature 30 min, peptide substrate Lys-Lys-Leu-Asn-Arg-Thr-Leu-Ser-Val-Ala
Procedure: General Measurement Method for Determining Inhibition of MAPKAP-K2 Enzyme Activity
(Preparation of Solutions of Compounds)
Each compound was dissolved to DMSO to prepare a solution with a concentration of 20 mmol/L and this solution was stored at −20° C. This stock solution was diluted with DMSO successively to prepare solutions with 200-fold concentrations of a necessary range. These solutions were further diluted with water at a ratio of 1:20 to prepare solutions with 10-fold concentrations of a necessary range. Each of these solutions (5 μL) was used for each reaction in 50 μL-scale. Through the dilution series of all compounds, the final DMSO concentration was kept at 0.5%. […]
To a DMSO solution (5 μL) containing a test compound at 5%, a solution (25 μL) containing a peptide substrate [peptide substrate […], ATP 20 μmol/L, Tris buffer 60 mmol/L (pH 7.5), EGTA 0.2 mmol/L, β-mercaptoethanol 0.2%, magnesium acetate 20 mmol/L, [γ-33P]ATP 0.1 μCi (specific radioactivity ca. 110 TBq/mmol)] was added. […] After the plate was dried, 30 μL of MicroScint™-O (Perkin-Elmer) was added here, and the radioactivity (cpm) was measured on a scintillation counter to determine the inhibitory activity. […]

CCOc1ccc(Nc2c3c(nc4ccnn24)N(C2CCCNC2)CC3)cc1 (stereo not shown)
IC50: < 10 µM
